Drawing on US20030044861A1, “Method for diagnosing neoplasia” (priority 1998, published 2003), this text covers IC50 for one compound.

The target of the assay is T1, PDE peak A (PDE5) from SW-480 cells (Homo sapiens, UniProt O76074).
T1 construct: SW-480 cells are collected and homogenized; The homogenate is centrifuged, and the supernatant is loaded onto a DEAE-Trisacryl M column; endogenous in cells; host or cells: SW-480 human colon carcinoma cells, DEAE-Trisacryl M fraction peak A
Briefly: cGMP hydrolysis by PDE peak A. In kind it is biochemical.

`O=C([O-])C1CCN(c2nc(NCc3ccc4c(c3)OCO4)c3cc(Cl)ccc3n2)CC1.[Na+]` [Compound E4021] yielded an IC50 of 3 nM.

Usually IC50 stands for the point on the concentration scale where inhibition reaches its midpoint.
